Assay results as given in US10144746B2 (GLOBAL BLOOD THERAPEUTICS, INC., priority 2015, dated 2018).

The chains behind the UniProt entries cited, without tags or fusion partners. Residues count along the entry.
UniProt P03952, 20-390 partner: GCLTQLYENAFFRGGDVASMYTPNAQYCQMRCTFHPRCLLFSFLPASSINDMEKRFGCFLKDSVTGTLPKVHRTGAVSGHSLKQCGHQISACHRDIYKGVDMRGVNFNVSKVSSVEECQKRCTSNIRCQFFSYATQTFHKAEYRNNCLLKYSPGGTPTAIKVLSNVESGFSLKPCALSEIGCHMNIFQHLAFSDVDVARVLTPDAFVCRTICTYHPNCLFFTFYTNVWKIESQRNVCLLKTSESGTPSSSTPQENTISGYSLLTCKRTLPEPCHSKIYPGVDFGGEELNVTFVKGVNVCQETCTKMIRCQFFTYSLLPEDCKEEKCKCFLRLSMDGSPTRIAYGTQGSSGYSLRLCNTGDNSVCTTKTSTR
UniProt P03952, 391-638: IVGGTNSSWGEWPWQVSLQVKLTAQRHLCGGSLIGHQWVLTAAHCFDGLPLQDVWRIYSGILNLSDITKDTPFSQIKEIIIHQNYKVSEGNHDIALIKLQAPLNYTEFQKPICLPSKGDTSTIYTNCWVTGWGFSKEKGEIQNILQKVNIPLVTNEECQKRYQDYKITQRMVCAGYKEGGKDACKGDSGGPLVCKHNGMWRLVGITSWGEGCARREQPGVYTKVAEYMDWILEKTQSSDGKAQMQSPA

target: Human plasma kallikrein (Homo sapiens (Human), UniProt P03952); assay: In vitro plasma kallikrein inhibition assay (chromogenic substrate D-Pro-Phe-Arg-pNa, absorbance at 405 nm, IC50 determination); assay type: biochemical
Description: In Vitro Plasma Kallikrein Inhibition Assay
The chromogenic substrate D-Pro-Phe-Arg-pNa, 2HCl (BIOPHEN CS-31(02) from Hyphen BioMed, Neuville-Sur-oise, France) was dissolved in 5 mL deionized water and stored at 4° C. […] All other chemicals were of analytical grade.
A stock solution of 7 μM in 50% glycerol was stored at −20° C.
Enzyme reactions were conducted in “assay buffer” comprised of 20 mM HEPES at pH 7.4, 150 mM NaCl, 0.1% PEG-8000 and 0.01% Triton X-100.
Both enzyme and substrate were diluted in assay buffer.
Plate measurements were conducted using a SPECTROStar Nano reader (BMG Labtech, San Francisco, Calif., USA). […] We used discrete wavelength, precise, kinetic reads of 15 cycles with a 60 sec cycle time.
Determination of IC50 values
The test compound was dissolved in 100% DMSO. The compounds were serially diluted in DMSO in a 7 point dose response. For the assays, 66.5 μL of protease solution (protease in assay buffer) was added per well followed by the addition of 8.5 μL of compound in 100% DMSO. […] After 30 min. incubation at room temperature on an orbital shaker, the reactions were started by the addition of 10 μL substrate solution (in assay buffer, final assay concentration was 600 uM). After the addition of the substrate solution the final DMSO concentration was 10%. The plate was placed again on the shaker for 5 sec, spun at 2000 rpm for 5 sec and read on the spectrophotometer. […] The IC50 value was calculated from the plot of rate vs. inhibitor concentration by a 4 parameter logistic equation: y=A+((B−A)/([…]))
where y is the rate at the inhibitor concentration, x. A is the minimum y value at the highest inhibitor concentration and B is the y value in the absence of inhibitor, C is the IC50 value and D is the slope factor. The curve fitting was conducted with the non-linear regression routine of the analysis software XLfit (IDBS, version 5.3.1).

In order of rising “KLKB1 pIC50” value:
1. (±)-methyl 4-{[(6-amino-2,4- dimethylpyridin-3- yl)methyl]carbamoyl}-12- (2,4-difluorophenyl)-15- azatetracyclo[6.6.1.0^2,^7.0^9,1^4] pentadeca-2,4,6,9,11,13- hexaene-15-carboxylate (±)-methyl 4-{[(6-amino-2,4- dimethylpyridin-3-yl)methyl] carbamoyl}-11-(2,4- difluorophenyl)-15-azatetracyclo [6.6.1.0^2,^7.0^9,1^4] pentadeca-2,4,6,9,11,13-hexaene- 15-carboxylate [Example 210]  4.87
2. (1R,8S)-N-[(4-carbamimidoyl-2,6-difluorophenyl)methyl]-12-cyclopropyl-15-oxatetracyclo[6.6.1.0^2,7.0^9,14]pentadeca-2,4,6,9,11,13-hexaene-4-carboxamide [Example 24]  5.99
3. (1R,8S)-N-[(4-carbamimidoylphenyl)methyl]-12-(2-fluorophenyl)-15-oxatetracyclo-[6.6.1.0^2,7.0^9,14]pentadeca-2,4,6,9,11,13-hexaene-4-carboxamide [Example 44]  6.75
